Measured values: patent US20230142913A1, “TRICYCLIC HETEROARENES, PHARMACEUTICAL COMPOSITIONS CONTAINING THE SAME, AND METHODS OF USING THE SAME” (priority 2021, published 2023)

Target: T1, recombinant human Myt1 (full length PKMYT1) (Homo sapiens, UniProt Q99640)
T1 sequence (Q99640 1-499): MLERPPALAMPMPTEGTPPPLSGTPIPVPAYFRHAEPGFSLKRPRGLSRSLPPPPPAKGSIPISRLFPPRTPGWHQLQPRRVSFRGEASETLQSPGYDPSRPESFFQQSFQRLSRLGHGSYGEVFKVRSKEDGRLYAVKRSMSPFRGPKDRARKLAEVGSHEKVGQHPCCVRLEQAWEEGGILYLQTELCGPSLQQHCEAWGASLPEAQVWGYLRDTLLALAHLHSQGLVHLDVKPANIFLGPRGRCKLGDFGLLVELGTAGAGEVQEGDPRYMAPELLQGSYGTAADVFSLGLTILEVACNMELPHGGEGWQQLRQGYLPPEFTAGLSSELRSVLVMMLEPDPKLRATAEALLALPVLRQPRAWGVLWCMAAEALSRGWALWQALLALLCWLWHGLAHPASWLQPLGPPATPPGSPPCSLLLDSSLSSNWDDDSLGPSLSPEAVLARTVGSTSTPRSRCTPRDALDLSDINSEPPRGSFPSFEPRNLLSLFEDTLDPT
Assay: Recombinant human Myt1 kinase assay (ADP-Glo)

`NC(=O)c1c(N)n(-c2cccc3[nH]ncc23)c2nc3ccccc3nc12` [Compound 10] gave an IC50 (read-out: Myt1 IC50) of 182 nM.

In the case of `CCNC(=O)c1c(N)n(-c2cc(O)ccc2C)c2nc3ccccc3nc12` [Compound 19], the IC50 (read-out: Myt1 IC50) is reported as 4060 nM.

`Cc1ccc(O)cc1-n1c(N)c(C(=O)NCCO)c2nc3ccccc3nc21` [Compound 21] gave an IC50 (Myt1 IC50 (nM), recombinant human Myt1 18 nM, ATP 10 μM, ADP-Glo luminescence) of 1160 nM.

Work on `CNC(=O)c1c(N)n(-c2cc(O)ccc2C)c2nc3ccccc3nc12` [Compound 22] yielded an IC50 (read-out: Myt1 IC50) of 690 nM.

In the case of `Cc1ccc2[nH]ncc2c1-n1c(N)c(C(N)=O)c2nc3ccccc3nc21` [Compound 86], the IC50 (read-out: Myt1 IC50) is reported as 53 nM.

Like-named read-outs stand apart in the source and are kept apart here.
